From ChEMBL document CHEMBL5321209, “Design, synthesis of novel benzimidazole derivatives as ENL inhibitors suppressing leukemia cells viability via downregulating the expression of MYC” (Eur J Med Chem, 2023)

Columns and labels:
[1] = biological target: T1, Protein ENL (Homo sapiens) (UniProt Q03111); conditions: dose 111.0 nM, time 45.0 min
T1 sequence (whole entry): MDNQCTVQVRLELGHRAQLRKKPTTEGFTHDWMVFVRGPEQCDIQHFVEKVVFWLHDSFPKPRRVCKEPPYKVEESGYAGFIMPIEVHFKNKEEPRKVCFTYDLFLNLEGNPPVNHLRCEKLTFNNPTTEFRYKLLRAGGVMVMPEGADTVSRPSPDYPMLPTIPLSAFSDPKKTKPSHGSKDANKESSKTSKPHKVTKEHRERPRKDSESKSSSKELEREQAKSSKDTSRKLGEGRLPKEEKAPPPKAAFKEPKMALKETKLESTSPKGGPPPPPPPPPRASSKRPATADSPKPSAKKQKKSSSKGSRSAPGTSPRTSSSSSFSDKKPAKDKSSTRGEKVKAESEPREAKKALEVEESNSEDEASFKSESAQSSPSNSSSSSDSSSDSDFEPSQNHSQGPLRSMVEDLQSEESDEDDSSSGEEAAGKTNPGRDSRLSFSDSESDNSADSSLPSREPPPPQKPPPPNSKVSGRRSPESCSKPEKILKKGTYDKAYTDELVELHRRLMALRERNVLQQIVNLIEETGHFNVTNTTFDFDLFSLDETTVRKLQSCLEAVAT

[2] = biological target: T1, Protein ENL (Homo sapiens); conditions: dose 333.0 nM, time 45.0 min

Row | inhibition [1] | inhibition [2] | SMILES
1 | 48.9% | 98.2% | C[C@H]1CCCN1Cc1nc2cc(NC(=O)c3ccc4c(c3)[nH]c3ccccc34)ccc2[nH]1
2 | inactive | 40.6% | C[C@H]1CCCN1Cc1nc2cc(NC(=O)c3ccc4c(cnn4C4CCCC4)c3)ccc2[nH]1
3 | inactive | 39.9% | C[C@H]1CCCN1Cc1nc2cc(NC(=O)c3cccc4c3c3ccccc3c(=O)n4C)ccc2[nH]1
4 | 33.8% | 78.9% | C[C@H]1CCCN1Cc1nc2cc(NC(=O)c3ccc4c(cnn4CCNC(=O)Nc4ccc(C(C)(C)C)cc4)c3)ccc2[nH]1
5 | inactive | 82.4% | C[C@H]1CCCN1Cc1nc2cc(NC(=O)c3ccc4c(cnn4CCNC(=O)OC(C)(C)C)c3)ccc2[nH]1
6 | 22.4% | 55.4% | C[C@H]1CCCN1Cc1nc2cc(NC(=O)c3ccc4[nH]c(=O)c5ccc(F)cc5c4c3)ccc2[nH]1
7 | 12.8% | 77.7% | Cc1noc(C)c1-c1ccc(C(=O)Nc2ccc3[nH]c(CN4CCC[C@@H]4C)nc3c2)cc1
8 | 14.6% | inactive | C[C@H]1CCCN1Cc1nc2cc(NC(=O)c3ccc4c(cnn4CCN4C5COC(c6ccccc6)OC5C5OC(c6ccccc6)OCC54)c3)ccc2[nH]1 (stereo partly specified)

Active and inactive are the calls of the source. The rule behind the calls is not given here.
